For 25 compounds, activation results are on record in PubChem BioAssay AID602332 (National Center for Advancing Translational Sciences (NCATS), 2012).

The list shows a part of the results, in another mix than the full data. Activity calls are given as the source filed them. Calls follow the shape of the dose curve; as a rule, active = well fitted activation curve with a large enough effect; inconclusive = small, poorly fitted or top-dose-only effect; inactive = no such curve, though single readings can be large or run the other way.

The assay in a line: qHTS for Inducers of the Endoplasmic Reticulum Stress Response (ERSR) in Human Glioma: qHTS. Also: % of control where 0% means no effect; nearly all actives have a fitted effect of over 35% in size. The note with it: U87-MG GRP78 promoter luciferase reporter, 16 h; stronger effect = higher value. For orientation: qHTS replaces the single test concentration by a dilution series.
`O=[N+]([O-])c1cc([N+](=O)[O-])c(NCC2CCS(=O)(=O)C2)c([N+](=O)[O-])c1` (stereo not given): the activation was inactive: -7.84%.

In the case of `CC(C)c1ccc(C(=O)NCC2(N3CCOCC3)CCCCC2)cc1`, the activation was inactive: -1.28%.

Take `COc1ccc(NC2CCN(C(=O)OC(C)(C)C)CC2)cc1`: the activation was inactive: 3.91%.

As for `CN1CCN(CCOC(=O)C(O)(c2ccccc2)c2ccccc2)CC1`, the activation is inactive: -0.987%.

As to `CCCCn1nnnc1C(c1cccc2ccccc12)N1CCC(n2c(=O)[nH]c3ccccc32)CC1` (stereo not given), the activation is inactive: 0.299%.

For the compound `O=C(NCC1(N2CCOCC2)CCCCC1)c1cc(=O)[nH]c2ccccc12`, the activation is inactive: 4.91%.

For `COc1cc(C(=O)NCC2(N3CCCCC3)CCCCC2)ccc1OC(F)F`, the activation was inactive: -4.55%.

Turning to `O=C(NCC1(N2CCCCC2)CCCCC1)c1ccc(OC(F)F)cc1`, the activation was inactive: -2.99%.

For the compound `CC(C)(C)n1nnnc1C(c1ccccc1OC(F)(F)F)N1CCC(n2c(=O)[nH]c3ccccc32)CC1` (stereo not given), the activation is inactive: -5.52%.

For `O=C(NCC1(N2CCCCC2)CCCCC1)c1cccc([N+](=O)[O-])c1`, the activation is inactive: -3.79%.

`CCOc1ccc(C(=O)NCC2(N3CCOCC3)CCCCC2)cc1`: the activation was inactive: -0.851%.

Take `CSc1ccc(C(=O)NCC2(N3CCOCC3)CCCCC2)cc1`: the activation was inactive: -4.45%.

As for `O=c1[nH]c2ccccc2n1C1CCN(C(c2ccccc2OC(F)(F)F)c2nnnn2C2CCCC2)CC1` (stereo not given), the activation is inactive: -3.97%.

As to `N#CC1(Nc2ccccc2)CCN(CCc2ccccc2)CC1`, the activation is inactive: 2.47%.

Take `CCN1CCC(Nc2ccc(Cl)cc2)CC1`: the activation is inactive: -2.8%.

On to `O=C(NCC1(N2CCOCC2)CCCCC1)c1ccccc1`, for which the activation is inactive: -2.22%.

In the case of `Cc1cc(N(CCCl)CCCl)ccc1C=O`, the activation was inactive: -5.04%.

Take `CCCN1CCC(Nc2cc(OC)cc(OC)c2)CC1`: the activation is inactive: -9.01%.

With `O=c1[nH]c2ccccc2n1C1CCN(C(c2ccccc2)c2nnnn2C2CCCC2)CC1` (stereo not given), the activation was inactive: -1.45%.

In the case of `c1ccc(CN2CCC(Nc3ccccc3)CC2)cc1`, the activation is inactive: 0.278%.

As to `CN(C)C1(CNC(=O)c2cccc(C#N)c2)CCCCC1`, the activation was inactive: 2.27%.

`CC(C)(C)n1nnnc1C(c1cccc2ccccc12)N1CCC(n2c(=O)[nH]c3ccccc32)CC1` (stereo not given): the activation was inactive: -5.48%.

As to `CC(C)(C)OC(=O)N1CCC(N(C(=O)c2ccccc2)c2ccc(Cl)cc2)CC1`, the activation was inactive: -2.34%.

With `O=C(NCC1(N2CCOCC2)CCCCC1)c1ccc([N+](=O)[O-])cc1`, the activation is inactive: -0.216%.

With `O=C(NCC1(N2CCOCC2)CCCCC1)c1ccccc1[N+](=O)[O-]`, the activation is inactive: -3.36%.
